This is an account of results in ChEMBL document CHEMBL3826885, “Similarities and differences in affinity and binding modes of tricyclic pyrimido- and pyrazinoxanthines at human and rat adenosine receptors” (Bioorg Med Chem, 2016).

Protein sequences, listed by entry. Tags and fused reporters are not part of them.
UniProt P28647, whole entry: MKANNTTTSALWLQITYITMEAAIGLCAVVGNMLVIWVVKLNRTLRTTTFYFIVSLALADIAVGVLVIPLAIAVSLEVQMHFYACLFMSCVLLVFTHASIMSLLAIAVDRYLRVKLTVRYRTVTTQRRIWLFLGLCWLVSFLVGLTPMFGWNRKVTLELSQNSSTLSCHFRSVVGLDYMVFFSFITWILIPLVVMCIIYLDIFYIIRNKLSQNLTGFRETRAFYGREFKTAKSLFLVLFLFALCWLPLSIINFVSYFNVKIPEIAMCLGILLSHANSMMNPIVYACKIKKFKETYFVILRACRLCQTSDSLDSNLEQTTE

For one test, the target named is Adenosine receptor A3 (Rattus norvegicus, UniProt P28647). Kind of test: Displacement of [3H]NECA from recombinant rat adenosine receptor A3 expressed in CHO cell membranes. A digest of the protocol: (§1)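 Membranes came from CHO cells expressing recombinant receptors (human A1, A2A, A2B, A3; rat A2B, A3). Radioligands were [3H]CCPA for A1 and [3H]PSB-11 or [3H]NECA for A3. A single high concentration was screened first, in three experiments for A1/A2A and two for A2B/A3. Full inhibition curves spanning at least 3 log units were run for potent compounds.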
On the technique in general: Loss of bound radioactivity is the signal in a displacement assay; it reports binding, not function.

For test [1], the target named is T1, Adenosine receptor A2b (Homo sapiens) (UniProt P29275).
T1 sequence (whole entry): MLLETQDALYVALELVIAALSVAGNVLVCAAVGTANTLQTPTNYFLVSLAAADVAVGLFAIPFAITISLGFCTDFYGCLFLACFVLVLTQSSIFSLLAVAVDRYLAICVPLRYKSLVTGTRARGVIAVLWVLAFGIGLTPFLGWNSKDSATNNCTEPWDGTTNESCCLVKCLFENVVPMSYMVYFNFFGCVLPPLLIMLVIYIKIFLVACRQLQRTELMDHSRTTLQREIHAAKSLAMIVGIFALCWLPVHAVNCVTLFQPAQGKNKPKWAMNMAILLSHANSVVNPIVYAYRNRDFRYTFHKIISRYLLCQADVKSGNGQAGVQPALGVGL
The experiment in a line: Displacement of [3H]PSB-603 from recombinant human adenosine receptor A2b expressed in CHO cell membranes at 1 uM. A digest of the protocol:
as §1

Bounds are passed on as bounds.

A word on the Ki: it is the dissociation constant of the complex between target and ligand, obtained from inhibition or displacement. For the molecule `CCn1c(=O)c2c(nc3n2CCCN3CCc2ccc(O)cc2)n(CC)c1=O`, on Adenosine receptor A3, the Ki was over 1 µM.

The term inhibition denotes the drop in the measured response relative to a control, in per cent. In the case of `Cn1c(=O)c2c(nc3n2CCN(CCc2ccc(O)cc2)C3)n(C)c1=O`, in test [1], the inhibition stood at 11%.
